System: Chlorine-Induced Acute Lung Injury (ALI) Sheep Model
Assay: Chlorine-induced acute lung injury (ALI) sheep model, Protocol 2: PaO2/FiO2

## CC(C)C(=O)c1c(C(C)C)nn2ccccc12
High MN-166 20 mg, 30-min infusion, time-point 0 h, 1 animal, interim
  PaO2/FiO2: 650 mm Hg
High MN-166 20 mg, 1 h post-chlorine gas exposure, 1 animal, interim
  PaO2/FiO2: 415.1 mm Hg
High MN-166 20 mg, 3 h post-chlorine gas exposure, 1 animal, interim
  PaO2/FiO2: 331.7 mm Hg
High MN-166 20 mg, 6 h post-chlorine gas exposure, 1 animal, interim
  PaO2/FiO2: 329 mm Hg
High MN-166 20 mg, 12 h post-chlorine gas exposure, 1 animal, interim
  PaO2/FiO2: 461.3 mm Hg
High MN-166 20 mg, 18 h post-chlorine gas exposure, 1 animal, interim
  PaO2/FiO2: 313.2 mm Hg
High MN-166 20 mg, 24 h post-chlorine gas exposure, 1 animal, interim
  PaO2/FiO2: 392.2 mm Hg
High MN-166 20 mg, 30 h post-chlorine gas exposure, 1 animal, interim
  PaO2/FiO2: 434.2 mm Hg
High MN-166 20 mg, 36 h post-chlorine gas exposure, 1 animal, interim
  PaO2/FiO2: 409.6 mm Hg
High MN-166 20 mg, 42 h post-chlorine gas exposure, 1 animal, interim
  PaO2/FiO2: 466.7 mm Hg
High MN-166 20 mg, 48 h post-chlorine gas exposure, 1 animal, interim
  PaO2/FiO2: 445.7 mm Hg
Low MN-166 10 mg, 30-min infusion, time-point 0 h, 1 animal, interim
  PaO2/FiO2: 507.1 mm Hg
Low MN-166 10 mg, 1 h post-chlorine gas exposure, 1 animal, interim
  PaO2/FiO2: 295.8 mm Hg
Low MN-166 10 mg, 3 h post-chlorine gas exposure, 1 animal, interim
  PaO2/FiO2: 292.6 mm Hg
Low MN-166 10 mg, 6 h post-chlorine gas exposure, 1 animal, interim
  PaO2/FiO2: 368.5 mm Hg
Low MN-166 10 mg, 12 h post-chlorine gas exposure, 1 animal, interim
  PaO2/FiO2: 329.3 mm Hg
Low MN-166 10 mg, 18 h post-chlorine gas exposure, 1 animal, interim
  PaO2/FiO2: 340 mm Hg
Low MN-166 10 mg, 24 h post-chlorine gas exposure, 1 animal, interim
  PaO2/FiO2: 382.3 mm Hg
Low MN-166 10 mg, 30 h post-chlorine gas exposure, 1 animal, interim
  PaO2/FiO2: 381.2 mm Hg
Low MN-166 10 mg, 36 h post-chlorine gas exposure, 1 animal, interim
  PaO2/FiO2: 365.8 mm Hg
Low MN-166 10 mg, 42 h post-chlorine gas exposure, 1 animal, interim
  PaO2/FiO2: 335.6 mm Hg
Low MN-166 10 mg, 48 h post-chlorine gas exposure, 1 animal, interim
  PaO2/FiO2: 339.3 mm Hg
High dose MN-166 20 mg, all time-points, never decreased below
  PaO2/FiO2: ≥ 300 mm Hg
High dose MN-166 20 mg, by the 30-hour time-point
  PaO2/FiO2: above 400 mm Hg

## COc1ccc(C2CNC(=O)C2)cc1OC1CCCC1 (stereo not drawn)
Rolipram 3 mg, 30-min infusion, 1 h post-chlorine gas exposure (210 ppm, 30 min), 1 animal, interim
  PaO2/FiO2: 522.9 mm Hg
Rolipram 3 mg, 3 h post-chlorine gas exposure, 1 animal, interim
  PaO2/FiO2: 315.3 mm Hg
Rolipram 3 mg, 6 h post-chlorine gas exposure, 1 animal, interim
  PaO2/FiO2: 391.6 mm Hg
Rolipram 3 mg, 12 h post-chlorine gas exposure, 1 animal, interim
  PaO2/FiO2: 322.7 mm Hg
Rolipram 3 mg, 18 h post-chlorine gas exposure, 1 animal, interim
  PaO2/FiO2: 235.8 mm Hg
Rolipram 3 mg, 24 h post-chlorine gas exposure, 1 animal, interim
  PaO2/FiO2: 144.5 mm Hg
Rolipram 3 mg, 30 h post-chlorine gas exposure, 1 animal, interim
  PaO2/FiO2: 84.6 mm Hg
Rolipram 3 mg, 36 h post-chlorine gas exposure, 1 animal, interim
  PaO2/FiO2: 97.9 mm Hg
Rolipram 3 mg, 42 h post-chlorine gas exposure, 1 animal, interim
  PaO2/FiO2: 102.7 mm Hg
Rolipram 3 mg, 48 h post-chlorine gas exposure, 1 animal, interim
  PaO2/FiO2: 59 mm Hg
Rolipram 3 mg, after the 24-hour time-point post-chlorine gas exposure (less than 200 or less than 100)
  PaO2/FiO2: less than 200 mm Hg
Rolipram 3 mg, at the 18 hour time-point (mild ARDS)
  PaO2/FiO2: less than 300 mm Hg

From US11925625B2, “Methods of treating chemical gas exposure” (dated 2024)
